Earlier results in patent US20250387404A1, “FORMULATIONS AND METHODS FOR TREATING EPIDERMOLYSIS BULLOSA SIMPLEX AND RELATED CONDITIONS” (RUTGERS, THE STATE UNIVERSITY OF NEW JERSEY, priority 2022, published 2025).

Conditions: phase 1b, newly diagnosed AML, 50 mg twice daily; cited from earlier work

## 4′-N-benzoylstaurosporine [PKC412]
  safety of oral administration: administered safely with an acceptable side-effect profile
